Test results as given in ChEMBL document CHEMBL1140657, “SAR of a novel 'Anthranilamide Like' series of VEGFR-2, multi protein kinase inhibitors for the treatment of cancer” (Bioorg Med Chem Lett, 2007).

The chains behind the UniProt entries cited, without tags or fusion partners.
UniProt P15056, whole entry: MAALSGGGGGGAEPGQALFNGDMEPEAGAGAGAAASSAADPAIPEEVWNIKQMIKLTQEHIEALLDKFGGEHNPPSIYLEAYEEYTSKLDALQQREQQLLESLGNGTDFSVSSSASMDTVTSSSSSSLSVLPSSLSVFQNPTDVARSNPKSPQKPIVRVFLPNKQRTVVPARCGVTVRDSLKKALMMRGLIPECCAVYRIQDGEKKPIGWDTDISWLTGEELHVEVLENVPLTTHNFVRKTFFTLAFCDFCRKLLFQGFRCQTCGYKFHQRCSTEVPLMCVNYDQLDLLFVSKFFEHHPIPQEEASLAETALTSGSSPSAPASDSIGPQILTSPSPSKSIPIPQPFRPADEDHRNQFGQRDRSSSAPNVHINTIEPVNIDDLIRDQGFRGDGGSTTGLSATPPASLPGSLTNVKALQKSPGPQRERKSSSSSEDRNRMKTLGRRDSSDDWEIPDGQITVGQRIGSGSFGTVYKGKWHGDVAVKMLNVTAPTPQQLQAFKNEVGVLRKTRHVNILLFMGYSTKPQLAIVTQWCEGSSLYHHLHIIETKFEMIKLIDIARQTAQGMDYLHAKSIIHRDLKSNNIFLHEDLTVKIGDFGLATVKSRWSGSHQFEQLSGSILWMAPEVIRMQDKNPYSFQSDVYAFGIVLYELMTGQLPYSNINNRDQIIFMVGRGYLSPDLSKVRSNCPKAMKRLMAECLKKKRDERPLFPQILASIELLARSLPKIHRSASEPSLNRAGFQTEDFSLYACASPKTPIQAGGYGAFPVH

Biological target: Serine/threonine-protein kinase B-raf (Homo sapiens, UniProt P15056)
Experiment: Inhibition of b-Raf

| IC50 | Structure (SMILES) |
| --- | --- |
| 191 nM | CNC(=O)Nc1ccc(CNc2c(C(=O)Nc3ccc4c(c3)OC(F)(F)C(F)(F)O4)cnn2C)cn1 |
| 122 nM | CCNC(=O)Nc1ccc(CNc2ncsc2C(=O)Nc2ccc3c(c2)OC(F)(F)O3)cn1 |
| 69 nM | CNC(=O)Nc1ccc(CNc2ncsc2C(=O)Nc2ccc3c(c2)OC(F)(F)O3)cn1 |
